Chains of the proteins cited; added tags and fusions are not shown. Residues count along the entry.
UniProt P69905, 2-142 limits assumed, chain 1 of 2: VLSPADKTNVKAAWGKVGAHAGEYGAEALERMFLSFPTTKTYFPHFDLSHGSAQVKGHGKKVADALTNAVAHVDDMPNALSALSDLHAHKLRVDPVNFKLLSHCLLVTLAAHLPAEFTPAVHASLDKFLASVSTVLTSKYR
human hemoglobin, UniProt P68871, 2-147 limits assumed, chain 2 of 2: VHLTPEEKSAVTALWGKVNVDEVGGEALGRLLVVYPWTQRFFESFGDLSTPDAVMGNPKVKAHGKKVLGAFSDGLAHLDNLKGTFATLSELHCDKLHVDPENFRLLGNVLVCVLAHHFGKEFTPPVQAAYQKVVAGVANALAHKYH

According to patent US20080075726A1 (VACCINEX, published 2008):

Target: human hemoglobin (human, UniProt P69905 2-142; P68871 2-147)
Test: ELISA on a panel of control antigens (data not shown)

B1: mAb 1339 (antibody, human IgG1, kappa, V domains shown)
VH: QVTLKESGPTLVKPTQTLTLTCSFSGFSLSTSGVGVGWVRQPPGKALEWLAFIWWDDDKYYSPSLESRLTITKDTSKNQVVLTMTNMDPVDTATYYCARSADDYLYYSFDTWGQGTLVTVSS
VL: DIQMTQSPSSLSAFVGDGVTMTCWASQSINDYLNWYHQRPGEAPELLVFAASNLQIGVPSRFRGSGSETYFTLTINSLQPEDSGTYFCQNAHSFPLTFGGGTKLEIKR
binding result: no binding
